Usually ED50 stands for the dose that gives a 50% effect, or the effect in half of the subjects.

Data on one molecule can be found in PMC10848157, “Assessing NH300094, a novel dopamine and serotonin receptor modulator with cognitive enhancement property for treating schizophrenia” (Frontiers in Pharmacology, 2024).

One series relates to male ICR mice. To be noted: p.o.
The next series in a line: in vivo. The following applies: male, ICR, mouse, po.

Consider `Cc1nc2n(c(=O)c1CCN1CCC(c3noc4cc(F)ccc34)CC1)CCCC2` [Risperidone, risperidone, reference compound], for which the “minimal dose that induced catalepsy” value in the series with male ICR mice came out at 1 mg/kg. In “in vivo”, this molecule registered an ED50 of 1.35 mg/kg.
